Among the data in PubChem BioAssay AID1053197 (The Scripps Research Institute Molecular Screening Center, 2014) are inhibition values, retold here.

The chains behind the UniProt entries cited, without tags or fusion partners.
UniProt Q9HAT2, whole entry: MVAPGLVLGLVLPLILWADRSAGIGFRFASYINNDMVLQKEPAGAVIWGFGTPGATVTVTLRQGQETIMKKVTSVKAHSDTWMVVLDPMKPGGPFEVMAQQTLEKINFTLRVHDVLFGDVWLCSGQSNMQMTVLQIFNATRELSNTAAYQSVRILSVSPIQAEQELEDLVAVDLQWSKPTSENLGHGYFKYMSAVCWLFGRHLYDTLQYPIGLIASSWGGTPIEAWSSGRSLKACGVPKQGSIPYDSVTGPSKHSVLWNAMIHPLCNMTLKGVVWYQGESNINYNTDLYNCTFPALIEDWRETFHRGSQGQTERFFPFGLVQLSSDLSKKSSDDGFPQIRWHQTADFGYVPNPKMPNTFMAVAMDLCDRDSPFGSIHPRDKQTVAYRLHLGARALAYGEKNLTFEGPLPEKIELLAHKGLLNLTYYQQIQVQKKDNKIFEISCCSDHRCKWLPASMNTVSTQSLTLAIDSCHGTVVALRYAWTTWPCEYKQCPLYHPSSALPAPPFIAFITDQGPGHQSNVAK

Each structure is given as a SMILES string. The entries are a selection whose mix differs from that of the whole data set. Some tests of the compounds listed are not included; inactive here does not mean inactive elsewhere. The source made the active and inactive calls.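 The calls were made as follows: active = inhibition above a cutoff: mean of compounds within the control limits plus 3 SD of those (cut at about 17% in these data); inactive = the rest.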

The target of the experiment is Sialate O-acetylesterase (Homo sapiens) (UniProt Q9HAT2). The experiment is described as follows: blockers of sialate O-acetylesterase activity-probe labeling – biochemical, fluorescence polarization, FP-Rh probe, 1536-well HTS, primary screen (AID 1053197).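 Also: 0% = plate median of compound wells and 100% = probe without SIAE protein.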 The settings on record: SIAE FP-Rh probe binding, at 9.66 µM, stronger effect = higher value. (In general: Polarisation of emitted light reports the rotation of a fluorescent probe.)
With `CN(C)c1cccc(C(=O)NCC2(N(C)C)CCCCC2)c1`, the inhibition is inactive: 3.18%.

In the case of `CC(C)Oc1ccc(C(=O)NCC2(N(C)C)CCCCC2)cc1`, the inhibition is inactive: 0.29%.

With `O=C(OCCN1CCCC1)C(O)(c1ccccc1)c1ccccc1`, the inhibition is inactive: 7.68%.

In the case of `COc1ccc(Br)c(C(=O)NCC2(N3CCCCC3)CCCCC2)c1`, the inhibition is inactive: 1.55%.

Consider `C=C(C)C#CC(O)(C(=O)OC1CCN(C)CC1)c1ccccc1` (stereo unspecified), for which the inhibition is inactive: 1.68%.

Take `O=C(OC1CN2CCC1CC2)C(CO)(c1ccccc1)c1ccccc1` (stereo unspecified): the inhibition was inactive: 2.86%.

As for `O=C(NCC1(N2CCCCC2)CCCCC1)c1cccc(Cl)c1`, the inhibition was inactive: -0.13%.

Regarding `COc1cccc(C(=O)NCC2(N3CCCCC3)CCCCC2)c1`, the inhibition was inactive: -3.82%.

As for `COc1ccc(Cl)cc1C(=O)NCC1(N(C)C)CCCCC1`, the inhibition is inactive: -5.81%.

Consider `COc1cc(C(=O)NCC2(N(C)C)CCCCC2)c([N+](=O)[O-])cc1OC`, for which the inhibition is inactive: 4.97%.

Consider `CN(C)C1(CNC(=O)c2ccc(Br)cc2)CCCCC1`, for which the inhibition is inactive: -2.68%.

As to `CCN1CCCC(OC(=O)C2(O)c3ccccc3C=Cc3ccccc32)C1` (stereo unspecified), the inhibition is inactive: -1.19%.

As to `Cc1cc(C(=O)NCC2(N3CCCCC3)CCCCC2)ccc1[N+](=O)[O-]`, the inhibition is inactive: -4.55%.

Consider `O=C(NCC1(N2CCCCC2)CCCCC1)c1cccc(Br)c1`, for which the inhibition was inactive: -11.8%.

Consider `COc1ccc(C(=O)NCC2(N(C)C)CCCCC2)cc1`, for which the inhibition is inactive: 2.54%.

For `C=CCN1CCN(CCOC(=O)C(O)(c2ccccc2)c2ccccc2)CC1`, the inhibition was inactive: -3.2%.

For `O=C(NCC1(N2CCCCC2)CCCCC1)c1cc(F)c(F)cc1Cl`, the inhibition is inactive: -2%.

As for `Cc1ccccc1C(=O)NCC1(N2CCCCC2)CCCCC1`, the inhibition was inactive: -3.65%.

Regarding `CN(C)c1ccc(C(=O)NCC2(N(C)C)CCCCC2)cc1`, the inhibition is inactive: 4.77%.

On to `CN(C)C1CCCC1OC(=O)C(O)(c1ccccc1)c1ccccc1` (stereo unspecified), for which the inhibition is inactive: 2.47%.

On to `Cc1ccc(C(=O)NCC2(N3CCCCC3)CCCCC2)cc1`, for which the inhibition was inactive: -0.44%.

Turning to `CC(C)N1C(=O)CC2(CCN(CCOC(=O)C(O)(c3ccccc3)c3ccccc3)CC2)C1=O`, the inhibition was active: 19.6%.

Turning to `CCN(CC)CC(C)C(C)OC(=O)C(O)(c1ccccc1)c1ccccc1` (stereo unspecified), the inhibition is inactive: 3.79%.

Consider `COc1cc(SC)ccc1C(=O)NCC1(N(C)C)CCCCC1`, for which the inhibition was inactive: -2.83%.

`CN1[C@@H]2CC[C@H]1CC(OC(=O)C(O)(c1ccccc1)c1ccccc1)C2` (stereo partly specified): the inhibition is inactive: -3.43%.

`O=C(NCC1(N2CCCCC2)CCCCC1)c1cc([N+](=O)[O-])ccc1Cl`: the inhibition is inactive: -0.38%.

By inhibition is commonly meant the drop in the measured response relative to a control, in per cent.
